BindingDB's records for doi:10.1016/0028-3908(94)90059-0 (University of Alberta, 1994)

Amino acid sequences for entries named in this document (tags omitted).
UniProt P30994, whole entry: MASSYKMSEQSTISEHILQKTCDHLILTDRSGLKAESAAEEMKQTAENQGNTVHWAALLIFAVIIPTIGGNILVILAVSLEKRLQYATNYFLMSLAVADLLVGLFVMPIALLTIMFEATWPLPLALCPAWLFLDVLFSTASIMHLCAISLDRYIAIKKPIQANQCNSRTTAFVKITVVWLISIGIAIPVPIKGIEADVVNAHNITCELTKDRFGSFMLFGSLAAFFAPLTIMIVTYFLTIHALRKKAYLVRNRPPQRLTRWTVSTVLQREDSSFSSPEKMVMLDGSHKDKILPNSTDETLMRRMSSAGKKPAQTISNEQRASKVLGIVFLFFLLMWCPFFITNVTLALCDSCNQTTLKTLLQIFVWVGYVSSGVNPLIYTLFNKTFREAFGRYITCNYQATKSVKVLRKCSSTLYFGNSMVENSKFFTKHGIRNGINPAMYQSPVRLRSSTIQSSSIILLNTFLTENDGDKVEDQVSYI
UniProt P11614, whole entry: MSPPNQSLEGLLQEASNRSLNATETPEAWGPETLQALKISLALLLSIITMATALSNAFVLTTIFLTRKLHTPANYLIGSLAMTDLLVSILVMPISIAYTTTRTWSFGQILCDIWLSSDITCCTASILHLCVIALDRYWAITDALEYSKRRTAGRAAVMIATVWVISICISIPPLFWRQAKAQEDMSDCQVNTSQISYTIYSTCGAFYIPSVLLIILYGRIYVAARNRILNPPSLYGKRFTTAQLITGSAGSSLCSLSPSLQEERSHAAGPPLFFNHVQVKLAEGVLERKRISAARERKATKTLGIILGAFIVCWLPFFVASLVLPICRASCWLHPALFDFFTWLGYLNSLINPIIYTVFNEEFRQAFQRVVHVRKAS
UniProt P08908, whole entry: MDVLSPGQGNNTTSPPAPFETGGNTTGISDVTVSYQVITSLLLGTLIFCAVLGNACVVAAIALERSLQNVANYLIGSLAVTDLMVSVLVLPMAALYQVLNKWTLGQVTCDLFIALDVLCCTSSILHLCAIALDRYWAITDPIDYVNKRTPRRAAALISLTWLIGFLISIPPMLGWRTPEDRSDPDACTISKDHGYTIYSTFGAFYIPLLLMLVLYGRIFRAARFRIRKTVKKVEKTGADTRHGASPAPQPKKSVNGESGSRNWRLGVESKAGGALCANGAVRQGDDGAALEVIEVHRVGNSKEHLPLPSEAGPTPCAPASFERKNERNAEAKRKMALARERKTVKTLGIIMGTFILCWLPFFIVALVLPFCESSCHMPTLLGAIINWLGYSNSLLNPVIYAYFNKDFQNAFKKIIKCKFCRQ
UniProt P31388, whole entry: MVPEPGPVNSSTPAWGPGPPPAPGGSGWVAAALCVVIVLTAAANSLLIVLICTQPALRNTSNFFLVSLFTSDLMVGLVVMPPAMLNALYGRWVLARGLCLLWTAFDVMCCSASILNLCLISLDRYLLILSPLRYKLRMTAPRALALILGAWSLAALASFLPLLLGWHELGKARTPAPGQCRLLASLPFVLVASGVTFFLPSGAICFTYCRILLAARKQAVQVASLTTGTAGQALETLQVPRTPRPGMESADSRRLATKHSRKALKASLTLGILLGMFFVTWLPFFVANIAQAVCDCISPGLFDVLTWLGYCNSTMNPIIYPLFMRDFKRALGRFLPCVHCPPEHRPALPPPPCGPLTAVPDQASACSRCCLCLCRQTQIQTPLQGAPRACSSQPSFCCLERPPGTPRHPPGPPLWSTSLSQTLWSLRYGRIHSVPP
UniProt P35365, whole entry: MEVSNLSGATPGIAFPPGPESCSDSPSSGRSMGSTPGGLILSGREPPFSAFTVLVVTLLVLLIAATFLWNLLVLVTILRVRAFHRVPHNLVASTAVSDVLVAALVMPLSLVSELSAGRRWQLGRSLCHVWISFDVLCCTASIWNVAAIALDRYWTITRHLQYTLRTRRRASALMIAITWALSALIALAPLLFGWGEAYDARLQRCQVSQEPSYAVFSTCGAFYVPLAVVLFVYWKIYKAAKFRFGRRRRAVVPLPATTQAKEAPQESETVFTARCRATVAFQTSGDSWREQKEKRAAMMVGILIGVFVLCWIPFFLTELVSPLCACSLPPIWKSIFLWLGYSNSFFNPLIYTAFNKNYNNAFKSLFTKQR
UniProt P32305, whole entry: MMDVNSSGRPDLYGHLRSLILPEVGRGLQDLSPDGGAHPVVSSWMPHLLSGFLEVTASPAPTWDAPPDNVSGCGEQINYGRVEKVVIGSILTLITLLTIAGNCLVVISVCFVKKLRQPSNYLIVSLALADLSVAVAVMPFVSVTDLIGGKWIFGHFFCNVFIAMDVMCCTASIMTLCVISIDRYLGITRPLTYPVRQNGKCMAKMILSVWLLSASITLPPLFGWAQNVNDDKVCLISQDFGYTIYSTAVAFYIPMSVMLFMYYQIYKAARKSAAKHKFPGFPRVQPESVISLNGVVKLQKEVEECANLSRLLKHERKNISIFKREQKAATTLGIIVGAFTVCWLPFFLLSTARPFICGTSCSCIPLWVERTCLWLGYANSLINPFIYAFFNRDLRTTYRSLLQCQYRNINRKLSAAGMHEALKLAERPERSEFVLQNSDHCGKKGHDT
UniProt P14842, whole entry: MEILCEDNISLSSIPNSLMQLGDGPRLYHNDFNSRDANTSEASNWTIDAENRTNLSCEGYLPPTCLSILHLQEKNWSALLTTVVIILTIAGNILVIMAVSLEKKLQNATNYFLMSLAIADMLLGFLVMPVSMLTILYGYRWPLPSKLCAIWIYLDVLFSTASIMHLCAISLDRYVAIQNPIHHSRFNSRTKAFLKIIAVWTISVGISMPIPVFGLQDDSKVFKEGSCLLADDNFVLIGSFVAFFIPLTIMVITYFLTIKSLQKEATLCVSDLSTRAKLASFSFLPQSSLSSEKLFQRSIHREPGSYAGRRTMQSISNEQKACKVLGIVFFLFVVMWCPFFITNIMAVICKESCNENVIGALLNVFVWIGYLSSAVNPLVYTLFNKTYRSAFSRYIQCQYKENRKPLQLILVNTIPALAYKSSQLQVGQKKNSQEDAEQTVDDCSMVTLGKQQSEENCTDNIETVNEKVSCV

Columns and labels:
[1] = target: 5-hydroxytryptamine receptor 2B (Rattus norvegicus, UniProt P30994)
[2] = target: 5-hydroxytryptamine receptor 1D (Canis lupus familiaris, UniProt P11614)
[3] = target: T1, 5-hydroxytryptamine receptor 2C (Rattus norvegicus, UniProt P08909)
T1 sequence (P08909 whole entry): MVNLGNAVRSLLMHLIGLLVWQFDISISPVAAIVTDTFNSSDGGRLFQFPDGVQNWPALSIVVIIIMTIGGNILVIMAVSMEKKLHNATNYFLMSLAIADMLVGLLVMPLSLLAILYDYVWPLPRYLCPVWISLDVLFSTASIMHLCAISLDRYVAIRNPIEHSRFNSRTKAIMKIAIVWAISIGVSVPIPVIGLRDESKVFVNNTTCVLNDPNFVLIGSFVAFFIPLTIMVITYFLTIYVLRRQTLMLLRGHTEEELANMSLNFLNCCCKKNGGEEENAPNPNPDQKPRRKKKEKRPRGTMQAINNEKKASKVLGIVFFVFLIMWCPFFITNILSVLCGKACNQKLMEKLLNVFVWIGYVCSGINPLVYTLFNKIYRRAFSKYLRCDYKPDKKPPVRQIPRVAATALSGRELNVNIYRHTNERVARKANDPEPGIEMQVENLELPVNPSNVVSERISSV

[4] = target: 5-hydroxytryptamine receptor 1A (Homo sapiens, UniProt P08908)
[5] = target: 5-hydroxytryptamine receptor 6 (Rattus norvegicus, UniProt P31388)
[6] = target: 5-hydroxytryptamine receptor 5B (Rattus norvegicus, UniProt P35365)
[7] = target: 5-hydroxytryptamine receptor 7 (Rattus norvegicus, UniProt P32305)
[8] = target: 5-hydroxytryptamine receptor 2A (Rattus norvegicus, UniProt P14842)

SMILES: COc1ccc2[nH]cc(CCN)c2c1 [tryptamine, 5-Methoxy]
- Ki [1]: 7.07 nM
- Ki [2]: 6.3 nM

SMILES: COc1cc(CC(C)N)c(OC)cc1Br (stereo not drawn) [2-(4-Bromo-2,5-dimethoxy-phenyl)-1-methyl-ethylamine((-)-DOB)]
- Ki [3]: 60.2 nM

SMILES: CNS(=O)(=O)Cc1ccc2[nH]cc(CCN(C)C)c2c1 [Sumax]
- Ki [4]: 1020 nM

SMILES: O=C(CCCN1CCC2(CC1)C(=O)NCN2c1ccccc1)c1ccc(F)cc1 [8-[4-(4-fluorophenyl)-4-oxidanylidene-butyl]-1-phenyl-1,3,8-triazaspiro[4.5]decan-4-one]
- Ki [1]: > 10000 nM and 3310 nM
- Ki [3]: 2140 nM and 1050 nM

SMILES: CSc1ccc2c(c1)C(N1CCN(C)CC1)Cc1ccccc1S2 (stereo not given) [methanesulfonic acid;1-methyl-4-(3-methylsulfanyl-5,6-dihydrobenzo[b][1]benzothiepin-5-yl)piperazine]
- Ki [5]: 1.81 nM and 0.38 nM
- Ki [6]: 145 nM and 43.6 nM

SMILES: CCN(CC)C(=O)[C@@H]1C=C2c3cccc4[nH]cc(c34)C[C@H]2N(C)C1 [(4R,7R)-N,N-diethyl-6-methyl-6,11-diazatetracyclo[7.6.1.0^{2,7}.0^{12,16}]hexadeca-1(16),2,9,12,14-pentaene-4-carboxamide]
- Ki [7]: 200 nM
- Ki [8]: 7.07 nM and 12 nM

Where “and” joins values, the source holds several entries; their conditions need not be identical. Equal values may be shown once.
